# Results: patent US12336995B2, “Combination therapies” (Mirati Therapeutics, Inc., priority 2018, dated 2025)
# Assays:
# [1] = test system: CR2528 cells (PDX models); test: In vivo PDX model, Compound 478 and Cetuximab (Table 5b); parameters: species or system nude/nude mice; settings: Cetuximab 0.25 mg/kg i.p. every third day, single or combined
# Experimental: The first group was administered vehicle only.
# [2] = test system: CR6258 Tumor; test: In vivo PDX model, Compound 478 and Cetuximab (Table 5a); parameters: species or system nude/nude mice; settings: Cetuximab 0.25 mg/kg i.p. every third day, single or combined
# [3] = Day 11 post implant (treatment start), Compound 478 100 mg/kg p.o. daily
# [4] = Day 14 post implant, from Day 11: Compound 478 100 mg/kg p.o. daily
substance,measurement,setting,value
Cetuximab: anti-EGFR monoclonal antibody approved for human clinical use (ImClone),Average Tumor Volumes,[1]; [3],266.03 mm^3
same,Average Tumor Volumes,[1]; [4],450.64 mm^3
same,Average Tumor Volumes,"[1]; Day 17 post implant, from Day 11: Compound 478 100 mg/kg p.o. daily",616.52 mm^3
same,Average Tumor Volumes,"[1]; Day 20 post implant, from Day 11: Compound 478 100 mg/kg p.o. daily",1208.84 mm^3
same,Average Tumor Volumes,"[1]; Day 24 post implant, from Day 11: Compound 478 100 mg/kg p.o. daily",1924.82 mm^3
same,Average Tumor Volumes,"[1]; Day 27 post implant, from Day 11: Compound 478 100 mg/kg p.o. daily",2424.63 mm^3
same,Average Tumor Volumes,"[1]; Day 31 post implant, from Day 11: Compound 478 100 mg/kg p.o. daily",2741.36 mm^3
same,Average Tumor Volumes,[2]; [3],187.77 mm^3
same,Average Tumor Volumes,[2]; [4],258.50 mm^3
same,Average Tumor Volumes,"[2]; Day 18 post implant, from Day 11: Compound 478 100 mg/kg p.o. daily",321.93 mm^3
same,Average Tumor Volumes,"[2]; Day 21 post implant, from Day 11: Compound 478 100 mg/kg p.o. daily",390.52 mm^3
same,Average Tumor Volumes,"[2]; Day 25 post implant, from Day 11: Compound 478 100 mg/kg p.o. daily",503.75 mm^3
same,Average Tumor Volumes,"[2]; Day 28 post implant, from Day 11: Compound 478 100 mg/kg p.o. daily",571.30 mm^3
same,Average Tumor Volumes,"[2]; Day 32 post implant, from Day 11: Compound 478 100 mg/kg p.o. daily",652.14 mm^3
same,Average Tumor Volumes,"[2]; Day 35 post implant, from Day 11: Compound 478 100 mg/kg p.o. daily",678.49 mm^3
same,Average Tumor Volumes,"[2]; Day 39 post implant, from Day 11: Compound 478 100 mg/kg p.o. daily",768.49 mm^3
same,Average Tumor Volumes,"[2]; Day 42 post implant, from Day 11: Compound 478 100 mg/kg p.o. daily",890.83 mm^3
same,Average Tumor Volumes,"[2]; Day 46 post implant, from Day 11: Compound 478 100 mg/kg p.o. daily",975.10 mm^3
same,Average Tumor Volumes,"[2]; Day 49 post implant, from Day 11: Compound 478 100 mg/kg p.o. daily",1233.04 mm^3
